Experimental data taken from ChEMBL document CHEMBL3991945, “TASPASE1 inhibitors and their uses” (2013).
Activity calls are given as the source filed them. The calls are words filed in the database; no cut-off is given here.

Biological target: T1, Threonine aspartase 1 (Homo sapiens) (UniProt Q9H6P5)
T1 sequence (whole entry): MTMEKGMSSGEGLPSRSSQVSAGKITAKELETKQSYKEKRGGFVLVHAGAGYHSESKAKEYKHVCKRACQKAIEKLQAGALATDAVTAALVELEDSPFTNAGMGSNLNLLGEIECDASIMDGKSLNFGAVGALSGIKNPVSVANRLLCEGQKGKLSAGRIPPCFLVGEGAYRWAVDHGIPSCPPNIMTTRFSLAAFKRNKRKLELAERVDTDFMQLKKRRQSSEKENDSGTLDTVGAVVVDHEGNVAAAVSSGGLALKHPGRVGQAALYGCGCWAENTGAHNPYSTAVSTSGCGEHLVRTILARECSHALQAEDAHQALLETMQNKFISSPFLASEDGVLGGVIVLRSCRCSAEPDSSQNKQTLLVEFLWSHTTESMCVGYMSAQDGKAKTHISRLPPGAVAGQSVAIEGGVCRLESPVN
Experiment: Inhibition of recombinant Taspase1 (unknown origin) at 10 to 1000 uM using [35S]-methionine labeled human MLL1 (2400-2900 residues) as substrate preincubated for 30 mins followed by substrate addition measured after 30 mins by SDS-PAGE based autoradiography

O=[N+]([O-])c1cc([As](=O)(O)O)ccc1Cc1ccc([As](=O)(O)O)cc1[N+](=O)[O-]
inhibition: inactive
